Data from ChEMBL document CHEMBL3585325, “Discovery of (1R,2S)-2-{[(2,4-Dimethylpyrimidin-5-yl)oxy]methyl}-2-(3-fluorophenyl)-N-(5-fluoropyridin-2-yl)cyclopropanecarboxamide (E2006): A Potent and Efficacious Oral Orexin Receptor Antagonist” (J Med Chem, 2015).

Amino acid sequences for entries named in this document (tags omitted).
UniProt O43614, whole entry: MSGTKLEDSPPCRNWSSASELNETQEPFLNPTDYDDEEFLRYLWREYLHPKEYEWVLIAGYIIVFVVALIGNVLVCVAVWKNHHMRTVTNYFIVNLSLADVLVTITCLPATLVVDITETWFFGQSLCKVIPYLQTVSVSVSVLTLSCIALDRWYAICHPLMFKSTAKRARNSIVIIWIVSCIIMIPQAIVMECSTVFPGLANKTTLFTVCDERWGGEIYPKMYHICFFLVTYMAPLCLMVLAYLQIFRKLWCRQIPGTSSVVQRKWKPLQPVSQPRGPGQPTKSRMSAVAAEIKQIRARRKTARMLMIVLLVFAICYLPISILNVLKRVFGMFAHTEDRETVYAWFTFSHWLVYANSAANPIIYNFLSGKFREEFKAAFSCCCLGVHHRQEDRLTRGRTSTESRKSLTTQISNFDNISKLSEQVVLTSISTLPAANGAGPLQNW

How the values were obtained:
Orexin receptor type 2 [1] = molecular target: T1, Orexin receptor type 2 (Homo sapiens, UniProt O43614); test: Binding affinity to human OX2R by radioligand displacement binding assay
How it was run: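 Ki values come from single experiments run in triplicate.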

[2] = Activity at P-gp (unknown origin) assessed as corrected flux ratio; format: ADME; conditions: human
How it was run: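 Reported as corrected flux ratio, i.e. the MDR1 flux ratio divided by the PK1 flux ratio.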

Orexin receptor type 2 [3] = molecular target: T1, Orexin receptor type 2

With `Cc1ncc(OC[C@@]2(c3cccc(F)c3)C[C@H]2C(=O)Nc2ccc(F)cn2)c(C)n1` [LEMBOREXANT] the Ki (Orexin receptor type 2 [1]) was 3 nM, the Ratio [2] was 1.6 and the Ki (Orexin receptor type 2 [3]) was 0.44 nM.
